Holding throughout (test): FRET or BRET
Common to all, as to settings: remark: other sources report otherwise
In general terms: Bioluminescence resonance energy transfer reports proximity on the nanometre scale.

Protein sequences, listed by entry. Tags and fused reporters are not part of them.
mCerulean3-BCL-2 (human), P10415, UniProt P10415, whole entry: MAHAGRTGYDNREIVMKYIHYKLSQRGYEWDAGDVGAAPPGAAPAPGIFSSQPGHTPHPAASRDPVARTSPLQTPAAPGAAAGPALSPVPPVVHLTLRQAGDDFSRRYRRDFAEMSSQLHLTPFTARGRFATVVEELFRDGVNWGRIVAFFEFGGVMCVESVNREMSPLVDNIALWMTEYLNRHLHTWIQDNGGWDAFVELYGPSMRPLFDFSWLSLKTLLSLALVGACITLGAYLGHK
mCerulean3-BCL-XL (human), Q07817, UniProt Q07817, whole entry: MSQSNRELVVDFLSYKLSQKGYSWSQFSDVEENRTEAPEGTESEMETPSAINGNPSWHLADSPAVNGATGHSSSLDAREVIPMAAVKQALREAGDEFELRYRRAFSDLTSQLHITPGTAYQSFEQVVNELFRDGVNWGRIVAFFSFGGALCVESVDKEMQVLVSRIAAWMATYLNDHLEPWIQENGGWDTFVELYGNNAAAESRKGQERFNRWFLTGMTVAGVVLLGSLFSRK
mCerulean3-MCL-1 (human), Q07820, UniProt Q07820, whole entry: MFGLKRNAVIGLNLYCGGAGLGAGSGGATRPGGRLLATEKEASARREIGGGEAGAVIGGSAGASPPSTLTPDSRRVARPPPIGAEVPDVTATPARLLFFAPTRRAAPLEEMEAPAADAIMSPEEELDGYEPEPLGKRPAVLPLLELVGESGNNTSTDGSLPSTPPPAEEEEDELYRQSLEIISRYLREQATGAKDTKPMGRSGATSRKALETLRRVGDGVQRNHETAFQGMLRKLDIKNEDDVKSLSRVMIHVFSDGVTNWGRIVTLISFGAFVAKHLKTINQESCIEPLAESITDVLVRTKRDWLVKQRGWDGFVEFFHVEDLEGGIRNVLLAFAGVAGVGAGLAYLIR

Assay [1] concerns the target mCerulean3-BCL-2 (human), P10415.
Assay [2] deals with mCerulean3-BCL-XL (human), Q07817.
The target in assay [3] is mCerulean3-MCL-1 (human), Q07820.

The Kd is the free concentration of one partner at which half of the binding sites on the other are occupied at equilibrium, for simple one-to-one binding. Lower therefore signals tighter binding.

B1: Venus-PUMA, Q9BXH1 1-193 (natural protein)
chain: MARARQEGSSPEPVEGLARDGPRPFPLGRLVPSAVSCGLCEPGLAAAPAAPTLLPAAYLCAPTAPPAVTAALGGSRWPGGPRSRPRGPRPDGPQPSLSLAEQHLESPVPSAPGALAGGPTQAAPGVRGEEEQWAREIGAQLRRMADDLNAQYERRRQEEQQRHRPSPWRVLYNLIMGLLPLPRGHRAPEMEPN
Take B1: the results for the Kd in assay [1], in assay [2] and in assay [3] were 4 µM, 4 µM and 2 µM, respectively.

The record behind these values is PMC9020777.
